From patent US9291692B2, “Blood-brain barrier recovery curve assessment method and system” (NATIONAL YANG-MING UNIVERSITY, priority 2013, dated 2016)
Like-named read-outs stand apart in the source and are kept apart here.

Tested on: blood-brain barrier
Conditions: right brain (sonicated target area), 1 mmol/kg i.v.

CNC(=O)CN(CCN(CCN(CC(=O)[O-])CC(=O)NC)CC(=O)[O-])CC(=O)[O-].[Gd+3] [Gd-DTPA-BMA] was tested, and the “permeation constant Ktrans” value (contrast agent injected t=0 min after ultrasound) was 0.06 min⁻¹, the “permeation constant Ktrans” value (t=15 min after ultrasound) was 0.03 min⁻¹ and the “permeation constant Ktrans” value (t=25 min after ultrasound) was 0.02 min⁻¹. The “permeation constant Ktrans” value (t=120 min after ultrasound) was 0.01 min⁻¹.
